# Binding of CDR-mutated scFvs to a peptide of the spike HR2 region

Values reported by Engelhart et al. 2022, doi:10.1038/s41597-022-01779-4 (FLAb copy).

Antigen: PDVDLGDISGINAS, a 14-residue peptide of the SARS-CoV-2 spike HR2 region.

Ab-14 is the parent antibody, in scFv form: VH, then the linker GGGGSGGGGSGGGGS, then VL. The heavy chain is unchanged in all variants.
VH: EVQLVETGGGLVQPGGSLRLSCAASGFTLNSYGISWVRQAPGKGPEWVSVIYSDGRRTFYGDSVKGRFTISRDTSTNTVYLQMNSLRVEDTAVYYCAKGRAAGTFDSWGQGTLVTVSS
VL: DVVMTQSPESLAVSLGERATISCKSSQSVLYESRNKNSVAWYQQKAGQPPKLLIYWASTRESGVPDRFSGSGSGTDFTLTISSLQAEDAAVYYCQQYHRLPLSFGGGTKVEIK

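Phage display of a naive human antibody library on the peptide gave the parent. AAYL50 was designed without a model: most single CDR substitutions and a random sample of double and triple ones. The assay is AlphaSeq: two haploid yeast populations carry antibody and antigen on their surface. Binding brings cells together so that they mate, and sequencing counts the barcode pairs among the diploids. The ratio of observed to expected reads was calibrated, replicate by replicate, on BCL2-family standards whose Kd was known from biolayer interferometry. Mating was done three times.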

Changes read parent residue, position, new residue, counted from the first residue of the VL shown.
The read-out is the apparent dissociation constant on a log10 scale (nM): the lower, the stronger.
A pair that was not seen in that replicate is written "n.d."; this usually means weak binding, but a binder can also be missed.
Nonspecific signal, from three strains lacking the peptide, appeared in 18% of pairings of library AAYL50, centred on 4.19 (5% of these signals below 2.99); values are not corrected for it. Also given: how often the same scFv was detected with the empty control strains, with their mean in brackets.

changes | log10 Kd, replicates | empty controls
Q27F K36A L100V | n.d. 3.10 3.40 | 1/9 (3.70)
L30H K36Y V39N | n.d. 3.17 n.d. | 4/9 (4.24)
A40I E61V Q95K | 4.26 4.19 4.31 | 4/9 (4.38)
E32N S58P R99D | n.d. n.d. 5.86 | 3/9 (4.50)
K36H S62F L102N | 1.17 1.55 1.83 | 2/9 (4.66)
L30C E61R Q95G | n.d. n.d. n.d. | 0/9
W56T R60E E61A | n.d. 3.72 3.78 | 1/9 (4.59)
S25K R60D | n.d. n.d. n.d. | 0/9
Y31W S58N R60Y | n.d. 3.86 5.32 | 4/9 (4.50)
R34L N37W A40I | n.d. 3.01 n.d. | 3/9 (3.28)
L30T V39G L102G | n.d. n.d. n.d. | 0/9
Y31L S38D Q96M | 1.00 1.14 1.32 | 6/9 (5.30)
V29C S38G | 1.92 1.52 1.73 | 3/9 (4.50)
N35M T59N E61V | 0.93 1.12 1.04 | 3/9 (4.43)
S58V P101E S103E | n.d. n.d. n.d. | 2/9 (3.36)
V39T | 4.35 n.d. 4.78 | 4/9 (4.00)
R34E W56F T59N | 0.95 0.88 0.77 | 0/9
S25A V39E Q95T | 3.34 n.d. n.d. | 0/9
Q27K S28H R34L | 0.70 0.92 0.77 | 1/9 (4.37)
P101M | n.d. n.d. 4.24 | 1/9 (4.07)
A40D W56A | 2.67 n.d. n.d. | 0/9
K24V N37T T59K | 4.02 4.29 n.d. | 2/9 (3.55)
K24H S28T S58A | n.d. 3.72 3.72 | 1/9 (2.63)
S26V Q27M S28K | n.d. 1.92 2.31 | 0/9
L30Q L102A S103Q | n.d. n.d. n.d. | 2/9 (4.53)
E32W R60L L100I | 3.11 3.24 3.01 | 0/9
V29H P101T L102R | n.d. n.d. 4.21 | 1/9 (4.83)
S25Y V29H L30T | n.d. 2.50 n.d. | 0/9
S28L E61N Y97K | 0.37 0.54 0.95 | 1/9 (2.99)
A57V Y97E | n.d. n.d. n.d. | 2/9 (3.53)
S26Q Y31P W56N | -0.43 -0.04 -0.29 | 9/9 (5.48)
E61H H98N S103P | n.d. n.d. n.d. | 0/9
Q96R Y97C R99Y | 5.18 n.d. n.d. | 2/9 (4.23)
S26R S33Y A57I | n.d. n.d. n.d. | 0/9
Q27D V29F N35V | 1.48 1.62 1.70 | 1/9 (3.53)
S28A V29I W56F | 0.70 0.93 0.63 | 2/9 (3.45)
K24D S25G R34Y | n.d. 2.51 n.d. | 1/9 (3.70)
A57M E61M | 4.26 n.d. n.d. | 1/9 (3.08)
R60D P101R S103K | n.d. 5.06 6.12 | 1/9 (3.73)
K24G N37P | 3.30 3.20 3.38 | 4/9 (4.68)
Q27K S33G K36Y | 0.44 0.67 0.46 | 0/9
Y31T N35P R60V | 3.61 5.17 4.05 | 0/9

For reference, 6 entries of the list once more:

| changes | log10 Kd, replicates | empty controls |
|---|---|---|
| P101M | n.d. n.d. 4.24 | 1/9 (4.07) |
| W56T R60E E61A | n.d. 3.72 3.78 | 1/9 (4.59) |
| R34E W56F T59N | 0.95 0.88 0.77 | 0/9 |
| K24G N37P | 3.30 3.20 3.38 | 4/9 (4.68) |
| K36H S62F L102N | 1.17 1.55 1.83 | 2/9 (4.66) |
| R60D P101R S103K | n.d. 5.06 6.12 | 1/9 (3.73) |